Bioassay records (PubChem)
NALP1 yeast inh: inhibitors of NALP1 inflammasome in yeast; S. cerevisiae NALP1/ASC/caspase-1 growth, X-gal OD620, 72 h; inhibition, % at 10 µM; actives 0.61% (n = 280,000); in the data active = inhibition mostly above about 24%, no sharp cut-off; inactive = mostly below about 32%
HDAC3 inhib: blocks human histone deacetylase 3; O15379; recombinant HDAC3, fluorogenic peptide/trypsin coupled, fluorescence; inhibition, % at 8.3 µM; actives 0.15% (n = 320,000); in the data active = inhibition above about 26%, passing the limit was not always enough
ALR inh: inhibitors of human ALR sulfhydryl oxidase, primary screen, biochemical, H2O2 detection, HRP-luminol luminescence, single point; FAD-linked sulfhydryl oxidase ALR (Homo sapiens), P55789; purified ALR, DTT oxidation; inhibition, % (concentration not given with the values); 290,000 compounds, 3.8% hits; AID 485317, 2010;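 active = mean and each replicate at 75% or more; inconclusive = only one of the two met; inactive = neither met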;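 note: stock transfer was 7.5 nL into about 7.5 µL; 0% = neutral wells and 100% = wells with inactivated enzyme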
Yeast UUG start: alters start codon recognition fidelity in yeast; AID 602363; activity score, % at 18.7 µM; 350,000 tested, 0.13% active; S. cerevisiae UUG-firefly luciferase reporter, luminescence/redox ratio;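 active means replicate mean at a twofold rise or more, about +100% in these data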;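 further: firefly luciferase made from a UUG start codon reports start codon fidelity; reporter light over untreated wells divided by growth signal over untreated wells; some hits fall short of that in this replicate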
MC4R barr agon: agonists of human melanocortin 4 receptor (MC4R) beta-arrestin. U2OS MC4R beta-arrestin complementation, luminescence; percent of melanotan II response, DMSO zero. activation, % at 8.9 µM. P32245. AID 540308. actives 0.98% (n = 360,000);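 active = activation above a per-plate cutoff, the mean activation of sample wells on that plate plus 3 SD, cut at about 8% in these data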
MC4R antag cAMP: blocks human MC4R cAMP signaling; P32245; MC4R-expressing cells, MTII-stimulated cAMP, LANCE TR-FRET; AID 540295; actives 0.48% (n = 360,000); inhibition, % at 6.5 µM;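 active = inhibition above its plate's cutoff, the mean of tested wells on that plate plus 3 SD, cut at about 29% in these data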
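system = U2OS cells with stable human MC4R expression | also added = Melanotan II challenge after compound preincubation | dosing = one concentration, 6.5 µM nominal | incubation = compound 30 min, challenge 1 h, detection 1 h | measured by = TR-FRET with Eu-cAMP and labeled anti-cAMP, 671 nm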
A number is an active result; . = inactive; / = no result given. A selection: hits, their analogues and other compounds. The true share with any hit is near 4.2%.

SMILES | NALP1 yeast inh | HDAC3 inhib | ALR inh | Yeast UUG start | MC4R barr agon | MC4R antag cAMP
O=C(O)c1cc(N/N=C/c2ccc3c(c2)OCO3)ccc1Cl | . | . | . | / | . | .
O=C(O)c1ccc(N/N=C/c2ccc3c(c2)OCO3)cc1 | . | . | 99 | / | . | .
O=C(Cc1ccc(F)cc1)N/N=C/c1ccc(-c2ccc(Cl)c(C(=O)O)c2)o1 | . | . | . | / | . | .
COc1cccc(-c2cnc3c(c2)C(=O)N([C@H](C)CO)C[C@@H](C)[C@H](CN(C)Cc2ccncc2)O3)c1 | / | / | / | . | / | /
CCCCC(=O)OCC(=O)Nc1ccc(SC(F)F)cc1 | . | . | 98 | . | . | .
CN1CC(=O)N(CC(=O)Nc2ccc(SC(F)F)cc2)C1=O | . | . | 98 | / | . | .
CC1(C2CC2)NC(=O)N(CC(=O)Nc2ccc(SC(F)F)cc2)C1=O (stereo not given) | / | . | . | . | . | .
CCCCNC(=S)Nc1ccc(SC(F)F)cc1 | . | . | 98 | . | . | .
CCCCNC(=S)Nc1ccc(F)cc1 | . | . | . | / | . | .
C[C@@H]1CCCCO[C@H](CN(C)C(=O)Nc2ccc3c(c2)OCO3)[C@H](C)CN([C@H](C)CO)C(=O)c2cc(NS(=O)(=O)c3cn(C)cn3)ccc2O1 | / | / | / | . | / | /
c1ccc(-c2cc(N3CCCCC3)ncn2)cc1 | . | . | . | . | . | .
c1ccc(-c2cc(N3CCCCCC3)n[nH]2)cc1 | . | . | 98 | . | . | .
Cc1ccc(Cn2c(=O)c3ccccc3n3nc(C)cc23)cc1 | . | . | / | / | 8.2 | .
CNC(=O)c1sc(N2N=C3/C(=C/c4ccccc4)CCCC3C2c2ccccc2)nc1C (stereo not given) | . | . | 99 | . | . | .
CC(C)C#Cc1ccc2c(c1)O[C@@H](CN(C)C(=O)c1cccc(F)c1)[C@@H](C)CN([C@H](C)CO)S2(=O)=O | / | / | / | . | / | /
COc1ccc(NC(=O)CN2CCN(c3ccccc3F)CC2)cc1 | . | . | / | . | . | .
CN(C)c1ccc(NC(=O)CN2CCC(O)(c3ccccc3)CC2)cc1 | 29 | . | / | / | . | .
Cc1ccc(C(=O)C2CCN(CC(=O)Nc3ccc(N(C)C)cc3)CC2)cc1 | . | . | 98 | / | . | .
CN(C)c1ccc(NC(=O)CN2CCN(CC(=O)Nc3ccc(F)cc3)CC2)cc1 | . | . | 99 | . | . | .
CN(C)c1ccc(NC(=O)CN2CCN(c3ccc(F)cc3)CC2)cc1 | . | . | . | . | . | .
CCN(CC)c1ccc(NC(=O)CN2CCN(c3ccccc3F)CC2)cc1 | . | . | 99 | . | . | .
COc1ccc(S(=O)(=O)N(C)C[C@@H]2OCCCC[C@H](C)Oc3ccc(NC(=O)Nc4c(C)noc4C)cc3C(=O)N([C@@H](C)CO)C[C@H]2C)cc1 | / | / | / | . | / | /
Cc1noc(C)c1S(=O)(=O)Nc1ccc2c(c1)C(=O)N([C@H](C)CO)C[C@H](C)[C@@H](CN(C)CC1CCCCC1)OCCCC[C@H](C)O2 | / | / | / | . | / | /
CO[C@H]1CN(C)C(=O)c2ccc(NC(=O)NC(C)C)cc2OC[C@@H](C)N(C(=O)NC(C)C)C[C@H]1C | / | / | / | . | / | /
O=C(O)c1ccccc1-c1nc(-c2ccccc2)c(-c2ccccc2)[nH]1 | . | . | . | / | . | .
SMILES | NALP1 yeast inh | HDAC3 inhib | ALR inh | Yeast UUG start | MC4R barr agon | MC4R antag cAMP
O=C(O)c1cccc2c(-c3ccccc3)c(-c3ccccc3)[nH]c12 | / | . | 98 | . | . | .
C[C@@H]1CCCCO[C@H](CN(C)Cc2ccc3c(c2)OCO3)[C@H](C)CN([C@H](C)CO)C(=O)c2cc(NC(=O)Nc3ccccc3)ccc2O1 | / | / | / | . | / | /
Cc1cc(N2CCC(C)CC2)nc(NCc2ccccc2)n1 | 69 | . | . | . | . | .
Cc1ccc(S(=O)(=O)Nc2ccc3c(c2)C(=O)N([C@@H](C)CO)C[C@@H](C)[C@H](CN(C)C(=O)c2ccncc2)OCCCC[C@H](C)O3)cc1 | / | / | / | . | / | /
COc1ccc(C(=O)N2C[C@H]3[C@@H](c4ccccc42)[C@@H](CO)N3Cc2ccc(Cl)cc2)cc1 | / | / | / | . | / | /
CC[C@@H]1C(c2ccc(F)cc2)=NN(c2ccc(Br)cc2)[C@H]1C(=O)N1CCOC1=O | / | / | / | . | 9.6 | .
CC[C@@H]1C(c2ccccc2)=NN(c2ccc(Br)cc2)[C@H]1C(=O)N1CCOC1=O | / | / | / | . | . | .
Cc1[nH]c2ccccc2c1C(=O)CN1CCSCC1 | . | . | 97 | . | . | .
